Measured values as given in patent publication US5053408A, “Hexitol derivatives having vasodilative activity” (Kyowa Hakko Kogyo Co., Ltd., priority 1989, dated 1991).

Test system: coronary vasospasm model (lysine-vasopressin)
Assay: Effects on coronary vasospasm model (lysine-vasopressin test), inhibition of ST-segment elevation
Type: in vivo, male Wistar rats
Settings: lysine-vasopressin 0.3 I.U./kg iv, MED = minimum dose with depression rate of 20% or higher

Structure (SMILES): O=[N+]([O-])O[C@H]1CO[C@H]2[C@@H]1OC[C@H]2O[N+](=O)[O-]
- Coronary vasoconstriction model MED i.p. (i.p., 20 min before anesthetization): < 30 mg/kg
- Coronary vasoconstriction model MED p.o. (p.o., 30 min before anesthetization): < 30 mg/kg
